Experimental data published in PubChem BioAssay AID624256 (NMMLSC, 2012).
The list shows a part of the results, in another mix than the full data. Some of these compounds have results that are not shown, active ones among them. Activity calls are given as the source filed them.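 How the source made its calls: active means normalized GFP-positive differentiation at or above the plate's own cutoff, the solvent-only control mean plus 3 SD; inconclusive means no clear call, values can overlap the other calls; inactive means the rest.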

Assay: HoxA9-arrested leukemia cell differentiation promoters – flow cytometry, MLPCN library, primary screen (AID 624256)
Details: ER-HoxA9 myeloid progenitors, lysozyme-GFP differentiation, at 10 µM

| SMILES | outcome |
| --- | --- |
| O=C(OC1CN2CCC1CC2)C(CO)(c1ccccc1)c1ccccc1 (stereo not given) | inactive |
| C=C(C)C#CC(O)(C(=O)OC1CCN(C)CC1)c1ccccc1 (stereo not given) | inactive |
| COc1ccc(Br)c(C(=O)NCC2(N3CCCCC3)CCCCC2)c1 | inactive |
| CC(C)Oc1ccc(C(=O)NCC2(N(C)C)CCCCC2)cc1 | inactive |
| O=C(OCCN1CCCC1)C(O)(c1ccccc1)c1ccccc1 | inactive |
| CN(C)c1cccc(C(=O)NCC2(N(C)C)CCCCC2)c1 | inactive |
| CN(C)C1(CNC(=O)c2ccc(Br)cc2)CCCCC1 | inactive |
| COc1cc(C(=O)NCC2(N(C)C)CCCCC2)c([N+](=O)[O-])cc1OC | inactive |
| COc1cccc(C(=O)NCC2(N3CCCCC3)CCCCC2)c1 | inactive |
| COc1ccc(Cl)cc1C(=O)NCC1(N(C)C)CCCCC1 | inactive |
| O=C(NCC1(N2CCCCC2)CCCCC1)c1cccc(Cl)c1 | inactive |
| Cc1ccccc1C(=O)NCC1(N2CCCCC2)CCCCC1 | inactive |
| CN(C)c1ccc(C(=O)NCC2(N(C)C)CCCCC2)cc1 | inactive |
| CN(C)C1CCCC1OC(=O)C(O)(c1ccccc1)c1ccccc1 (stereo not given) | inactive |
| C=CCN1CCN(CCOC(=O)C(O)(c2ccccc2)c2ccccc2)CC1 | inactive |
| O=C(NCC1(N2CCCCC2)CCCCC1)c1cc(F)c(F)cc1Cl | inactive |
| COc1ccc(C(=O)NCC2(N(C)C)CCCCC2)cc1 | inactive |
| CCN1CCCC(OC(=O)C2(O)c3ccccc3C=Cc3ccccc32)C1 (stereo not given) | inactive |
| Cc1cc(C(=O)NCC2(N3CCCCC3)CCCCC2)ccc1[N+](=O)[O-] | inactive |
| O=C(NCC1(N2CCCCC2)CCCCC1)c1cc([N+](=O)[O-])ccc1Cl | inactive |
| CN1[C@@H]2CC[C@H]1CC(OC(=O)C(O)(c1ccccc1)c1ccccc1)C2 (stereo not given in full) | inactive |
| CCN(CC)CC(C)C(C)OC(=O)C(O)(c1ccccc1)c1ccccc1 (stereo not given) | inactive |
| COc1cc(SC)ccc1C(=O)NCC1(N(C)C)CCCCC1 | inactive |
| CC(C)N1C(=O)CC2(CCN(CCOC(=O)C(O)(c3ccccc3)c3ccccc3)CC2)C1=O | inactive |
| Cc1ccc(C(=O)NCC2(N3CCCCC3)CCCCC2)cc1 | inactive |
